Test: Efflux ratio of apparent permeability in human Caco2 cells
Format: ADME, cell-based
Conditions: Caco-2

For `CC[C@]1(NC(=O)c2ccc3c(c2)CCCC3)C[C@H]2CN(CCc3c([nH]c4ccccc34)[C@@](C(=O)OC)(c3cc4c(cc3OC)N(C)[C@H]3[C@@](O)(C(=O)OC)[C@H](OC(C)=O)[C@]5(CC)C=CCN6CC[C@]43[C@@H]65)C2)C1`, the efflux ratio was 1.3.
